Laboratory results from paper PMC9227323, “The Potential of Cell-Penetrating Peptides for mRNA Delivery to Cancer Cells” (Pharmaceutics, 2022).

Assay: Size and zeta-potential of CPP/mRNA complexes by DLS
Format: physicochemical

## Penetratin
CPP/mRNA complex at the N/P ratio of Table 2, DLS, distilled water
  PDI: 0.29
CPP/mRNA complex at the N/P ratio of Table 2, Zetasizer Nano ZS, distilled water
  Zeta Potential: +15.7 (±1.0) mV
CPP/mRNA complex, amine groups of peptide to phosphate groups of mRNA
  N/P Ratio (lowest N/P ratio to form the nanocomplexes): 13.6
N/P ratios increased to more than 10
  kind of particles formed with mRNA: irregular large particles
